Reference: ChEMBL document CHEMBL4312008, “6-Methyluracil derivatives as peripheral site ligand-hydroxamic acid conjugates: Reactivation for paraoxon-inhibited acetylcholinesterase” (2020)

By UniProt entry, the sequences of proteins in these tests, tags left out. Where a name states a change or a piece, a line headed by the entry shows the natural chain unless it says otherwise.
UniProt P22303: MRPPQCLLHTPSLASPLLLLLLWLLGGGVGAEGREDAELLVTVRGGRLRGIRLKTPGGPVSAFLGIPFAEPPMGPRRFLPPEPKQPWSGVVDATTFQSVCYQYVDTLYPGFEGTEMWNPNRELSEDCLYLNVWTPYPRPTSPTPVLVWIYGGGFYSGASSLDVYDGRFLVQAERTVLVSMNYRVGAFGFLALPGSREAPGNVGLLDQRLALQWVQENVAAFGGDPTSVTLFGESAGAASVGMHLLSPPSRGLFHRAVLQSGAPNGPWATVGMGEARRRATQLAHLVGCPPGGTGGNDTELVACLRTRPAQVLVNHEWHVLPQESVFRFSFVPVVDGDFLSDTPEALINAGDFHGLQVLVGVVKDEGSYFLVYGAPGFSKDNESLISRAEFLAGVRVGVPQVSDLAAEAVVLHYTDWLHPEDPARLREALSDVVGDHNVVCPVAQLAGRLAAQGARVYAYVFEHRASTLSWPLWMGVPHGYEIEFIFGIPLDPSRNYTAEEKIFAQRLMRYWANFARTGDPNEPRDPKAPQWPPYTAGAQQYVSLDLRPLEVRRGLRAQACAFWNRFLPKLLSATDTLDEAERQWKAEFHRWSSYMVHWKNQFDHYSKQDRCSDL
UniProt P06276, whole entry, looked up: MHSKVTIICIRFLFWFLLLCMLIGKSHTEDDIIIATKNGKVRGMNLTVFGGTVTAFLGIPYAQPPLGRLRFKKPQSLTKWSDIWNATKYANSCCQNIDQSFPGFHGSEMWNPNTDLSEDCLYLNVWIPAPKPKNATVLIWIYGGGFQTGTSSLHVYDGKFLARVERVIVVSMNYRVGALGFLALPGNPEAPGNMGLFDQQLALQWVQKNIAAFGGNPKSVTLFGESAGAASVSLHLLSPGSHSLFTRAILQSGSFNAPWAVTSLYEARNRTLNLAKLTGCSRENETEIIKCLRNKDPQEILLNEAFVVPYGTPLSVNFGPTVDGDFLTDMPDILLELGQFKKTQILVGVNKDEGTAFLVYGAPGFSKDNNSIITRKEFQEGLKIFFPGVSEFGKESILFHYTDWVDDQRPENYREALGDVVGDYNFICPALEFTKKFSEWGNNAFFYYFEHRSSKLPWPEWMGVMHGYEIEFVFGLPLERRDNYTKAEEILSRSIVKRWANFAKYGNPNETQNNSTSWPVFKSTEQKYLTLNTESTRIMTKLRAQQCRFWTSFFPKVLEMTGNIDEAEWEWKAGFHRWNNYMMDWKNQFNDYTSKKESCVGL

What was measured:
[1] = target: Acetylcholinesterase (Homo sapiens) (UniProt P22303); test: Reactivation of POX-inhibited human recombinant AChE assessed as reactivation rate constant using ATC as substrate incubated for 60 mins followed by substrate addition by Ellman's method based spectrophotometry
[2] = target: Cholinesterase (Homo sapiens) (UniProt P06276); test: Reactivation of POX-inhibited BChE in human plasma at 100 mM using BTC as substrate incubated for 60 mins followed by substrate addition by Ellman's method based spectrophotometry relative to control; design: scale not given: the % may be the effect or the level left
[3] = target: Acetylcholinesterase (Homo sapiens) (UniProt P22303); test: Inhibition of human recombinant AChE at maximal concentration using ATC as substrate preincubated for 10 mins followed by substrate addition measured over 2 mins by Ellman's method based spectrophotometry
[4] = target: Acetylcholinesterase (Homo sapiens) (UniProt P22303); test: Reactivation of POX-inhibited human recombinant AChE assessed as bimolecular rate constant using ATC as substrate incubated for 60 mins followed by substrate addition by Ellman's method based spectrophotometry
[5] = target: Cholinesterase (Homo sapiens) (UniProt P06276); test: Inhibition of BChE in human plasma at maximal concentration using BTC as substrate preincubated for 10 mins followed by substrate addition measured over 2 mins by Ellman's method based spectrophotometry
[6] = target: Acetylcholinesterase (Homo sapiens) (UniProt P22303); test: Reactivation of POX-inhibited human recombinant AChE in at 10 mM using ATC as substrate incubated for 60 mins followed by substrate addition by Ellman's method based spectrophotometry relative to control; design: scale not given: the % may be the effect or the level left
[7] = target: Cholinesterase (Homo sapiens) (UniProt P06276); test: Reactivation of POX-inhibited BChE in human plasma at 2 mM using BTC as substrate incubated for 60 mins followed by substrate addition by Ellman's method based spectrophotometry relative to control; design: scale not given: the % may be the effect or the level left
[8] = target: Acetylcholinesterase (Homo sapiens) (UniProt P22303); test: Reactivation of POX-inhibited human recombinant AChE at 2 mM using ATC as substrate incubated for 60 mins followed by substrate addition by Ellman's method based spectrophotometry relative to control; design: scale not given: the % may be the effect or the level left
[9] = target: Acetylcholinesterase (Homo sapiens) (UniProt P22303); test: Reactivation of POX-inhibited human recombinant AChE at 8 mM using ATC as substrate incubated for 60 mins followed by substrate addition by Ellman's method based spectrophotometry relative to control; design: scale not given: the % may be the effect or the level left
[10] = target: Cholinesterase (Homo sapiens) (UniProt P06276); test: Reactivation of POX-inhibited BChE in human plasma at 8 mM using BTC as substrate incubated for 60 mins followed by substrate addition by Ellman's method based spectrophotometry relative to control; design: scale not given: the % may be the effect or the level left
[11] = target: Cholinesterase (Homo sapiens) (UniProt P06276); test: Reactivation of POX-inhibited BChE in human plasma at 0.8 mM using BTC as substrate incubated for 60 mins followed by substrate addition by Ellman's method based spectrophotometry relative to control; design: scale not given: the % may be the effect or the level left
[12] = target: Acetylcholinesterase (Homo sapiens) (UniProt P22303); test: Reactivation of POX-inhibited human recombinant AChE at 0.8 mM using ATC as substrate incubated for 60 mins followed by substrate addition by Ellman's method based spectrophotometry relative to control; design: scale not given: the % may be the effect or the level left
Rattus norvegicus [13] = test: In vivo reactivation of POX-inhibited AChE in rat brain at 10 mg/kg, iv administered at 1 hr post POX poisoning and measured after 1 hr using acetylthiocholine iodide substrate in presence of BChE inhibitor iso-OMPA by Ellman's method
Rattus norvegicus [14] = test: Neuroprotection against POX-induced neuronal death in Wistar rat assessed as reduction in brain dentate gyrus damage at 10 mg/kg, ip administered 15 mins before POX poisoning and observed after 2 days by fluoro-jade-B staining based confocal laser scanning microscopy
Rattus norvegicus [15] = test: Neuroprotection against POX-induced memory impairment in Wistar rat assessed as decrease in total distance to platform at 10 mg/kg, ip administered 15 mins before POX poisoning and measured after 2 days during 2 to 4 days of testing by morris water maze hidden platform test
Rattus norvegicus [16] = test: Neuroprotection against POX-induced memory impairment in Wistar rat assessed as increase in escape latency at 10 mg/kg, ip administered 15 mins before POX poisoning measured after 2 days during 2 to 4 days of testing by morris water maze hidden platform test
Rattus norvegicus [17] = test: Neuroprotection against POX-induced memory impairment in Wistar rat assessed as decrease in quadrant percentage time at 10 mg/kg, ip administered 15 mins before POX poisoning measured after 2 days and on day 5 of training session by morris water maze spatial probe test
Rattus norvegicus [18] = test: Neuroprotection against POX-induced memory impairment in Wistar rat assessed as decrease in number of platform area crossing at 10 mg/kg, ip administered 15 mins before POX poisoning measured after 2 days and on day 5 of training session by morris water maze spatial probe test
Rattus norvegicus [19] = test: Neuroprotection against POX-induced memory impairment in Wistar rat assessed as decrease in quadrant percentage time at 100 mg/kg, iv administered 15 mins before POX poisoning respectively and measured after 2 days and on day 5 of training session by morris water maze spatial probe test
Rattus norvegicus [20] = test: Protection against POX-induced mortality in Wistar rat assessed as increase in survival rate at 100 mg/kg, iv administered 10 mins before POX poisoning
Rattus norvegicus [21] = test: Neuroprotection against POX-induced memory impairment in Wistar rat assessed as total distance to platform at 100 mg/kg, iv compound administered 15 mins before POX poisoning and measured after 2 days and on day 2 to 4 of training session in presence of 2-PAM by morris water maze hidden platform …
[22] = target: Cholinesterase (Homo sapiens) (UniProt P06276); test: Reactivation of POX-inhibited BChE in human plasma at 10 mM using BTC as substrate incubated for 60 mins followed by substrate addition by Ellman's method based spectrophotometry relative to control; design: scale not given: the % may be the effect or the level left
Rattus norvegicus [23] = test: Neuroprotection against POX-induced memory impairment in Wistar rat assessed as decrease in number of platform area crossing at 100 mg/kg, iv administered 15 mins before POX poisoning and measured after 2 days and on day 5 of training session in presence of 2-PAM by morris water maze spatial probe …
Rattus norvegicus [24] = test: Neuroprotection against POX-induced neuronal death in Wistar rat assessed as reduction in brain dentate gyrus damage at 100 mg/kg, iv administered 10 mins before POX poisoning and observed after 2 days by fluoro-jade-B staining based confocal laser scanning microscopy
Rattus norvegicus [25] = test: Neuroprotection against POX-induced neuronal death in Wistar rat assessed as reduction in brain dentate gyrus damage at 100 mg/kg, iv administered 15 mins before POX poisoning and measured after 2 days in presence of 2-PAM by fluoro-jade-B staining based confocal laser scanning microscopy
Mus musculus = test: Protection against POX-induced mortality in CD1 mouse assessed as increase in animal survival rate at 300 mg/kg, iv administered 2 mins after challenge with POX at concentration of 2 X LD50

In the case of Cc1cc(=O)n(C)c(=O)n1CCCCn1cnc(C(=O)NO)n1, the Kr [1] is reported as 0.049 min⁻¹, the Activity [2] is reported as 4.3% and the inhibition [3] is reported as “inactive”. The K [4] was 0.0135 M⁻¹ s⁻¹ and the inhibition [5] was “inactive”.
Compound CCCCCn1ncnc1C(=O)NO has an Activity [6] of 5.4%.
For Cc1cc(=O)n(C)c(=O)n1CCCCCCn1ccnc1/C=N/O, the Activity [7] was 17% and the Activity [8] was 10.6%.
Work on Cc1cc(=O)n(C)c(=O)n1CCCn1ccnc1/C=N/O yielded an Activity [9] of 5.4% and an Activity [10] of 11.4%.
Work on Cc1cc(=O)n(C)c(=O)n1CCCCn1ccnc1/C=N/O yielded an Activity [11] of 13.2% and an Activity [12] of 16.8%.
Cc1cc(=O)n(C)c(=O)n1CCCCCCn1cnc(C(=O)NO)n1 was tested, and the Activity [2] was 9.8% and the Activity [6] was 7.3%.
With C[n+]1ccccc1C=NO the Kr [1] was 0.081 min⁻¹, the Activity (Rattus norvegicus [13]) was “inactive” and the Activity (Rattus norvegicus [14]) was “inactive”. The Activity (Rattus norvegicus [15]) was “Active”, the Activity (Rattus norvegicus [16]) was “Active” and the K [4] was 9.63 M⁻¹ s⁻¹. For the same compound, the Activity (Rattus norvegicus [17]) was “Active” and the Activity (Rattus norvegicus [18]) was “Active”.
Cc1cc(=O)n(C)c(=O)n1CCCCCn1cnc(C(=O)NO)n1 was tested, and the Kr [1] was 0.11 min⁻¹, the Activity (Rattus norvegicus [19]) was “Active” and the Activity (Rattus norvegicus [20]) was “Active”. The Activity (Rattus norvegicus [21]) was “Active”, the Activity [22] was 28.8% and the Activity (Rattus norvegicus [23]) was “Active”. The inhibition [3] was “inactive”, the Activity (Rattus norvegicus [24]) was “Active” and the K [4] was 0.333 M⁻¹ s⁻¹. The Activity (Rattus norvegicus [25]) was “Active”, the Activity (Mus musculus) was “Active” and the inhibition [5] was “inactive”.

The source made the active and inactive calls. No cut-off for these calls is given here.
